{
  "source": "patent US10549237B2",
  "about": "“Regenerable draw solute for osmotically driven processes” (NANYANG TECHNOLOGICAL UNIVERSITY, priority 2015, dated 2020)",
  "assay": "Osmotic pressure of the crystallization supernatant estimated from the FO water flux test",
  "assay_type": "physicochemical",
  "note": "Like-named read-outs stand apart in the source and are kept apart here.",
  "data": [
    {"substance": "Disodium phosphate", "values": [
      {"measurement": "osmotic pressure of supernatant", "value": "≤ 35", "unit": "bar"},
      {"measurement": "osmotic pressure of supernatant", "setting": "7.5 wt % supernatant (cooling to 20° C.), corresponds to 3.4 wt % NaCl", "value": "about 26 bar"}
    ]}
  ]
}
